Read-outs that look alike come from different tables or passages of the source.
How the values were obtained:
[1] = biological target: BoLA-1*023:01 MHC class I molecule with bovine β2-microglobulin (bovine) (UniProt P01888); assay: ELISA
[2] = biological target: BoLA-1*023:01 MHC class I molecule with bovine β2-microglobulin (bovine) (UniProt P01888); assay: ELISA; remark: listed apart in the source

Chains of the proteins cited; added tags and fusions are not shown.
UniProt P01888, whole entry, looked up: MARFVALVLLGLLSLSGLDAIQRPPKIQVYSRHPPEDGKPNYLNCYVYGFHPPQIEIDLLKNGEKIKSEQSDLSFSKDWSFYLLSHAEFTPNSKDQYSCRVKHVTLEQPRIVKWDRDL

Tp9_(67–75) Muguga epitope peptide showed a Kd [1] of 22.4 nM and a Kd [2] of 37.1 nM.

— PMC8802549 (The Journal of Immunology Author Choice, 2022)
